Laboratory results as given in US20160095958A1, “BONE REGENERATION USING STROMAL VASCULAR FRACTION, PLATELET-DERIVED GROWTH FACTOR-RICH HYDROGEL, THREE-DIMENSIONAL PRINTED POLY-EPSILON-CAPROLACTONE SCAFFOLDS” (THE JOHNS HOPKINS UNIVERSITY, priority 2013, published 2016).

Tested on: ASCs
Experiment: Vascularized bone co-development: encapsulated ASC spheroids, VM 8 days then OM 12 days
Assay type: cell-based, human
Details: 20 ng/mL
Description: Settled spheroid pellets were resuspended in fibrinogen (8 mg/mL final; Sigma), followed by the addition of thrombin (2.5 U/mL final; Sigma) to initiate gelation. Fibrin gels (35 μL) containing 40 spheroids each (in the aggregation study the number of spheroids per gel was varied to keep the total cell number constant) were pipetted into 6-mm diameter wells and incubated at 37° C. for 30 minutes to allow complete gelation prior to the addition of culture medium. Samples were then cultured for two to three weeks, depending on the experiment, with media changed every other day.
Vascular medium (VM) consisted of: Endothelial Basal Medium-2 (Lonza), 6% FBS, 1% penicillin/streptomycin, 10 ng/mL VEGF165, 1 ng/mL FGF-2, and 1 μg/mL L-ascorbic acid-2-phosphate (Sigma). For monolayer osteogenic differentiation experiments, control medium consisted of low glucose DMEM (GIBCO Invitrogen), 6% FBS, and 1% penicillin/streptomycin; Osteogenic Medium (OM) consisted of control medium plus 10 mM β-glycerophosphate (Sigma) and 50 μM L-ascorbic acid-2-phosphate. For osteogenic differentiation in fibrin gels, OM also included 10 ng/mL VEGF165 and 1 ng/mL FGF-2 to support vascular viability. […]
For monolayer experiments, ASCs were seeded at 5000 cells/cm^2 and cultured in either control medium or OM for 21 days, with the addition of either PDGF-BB or PDGF receptor inhibitor tyrphostin AG1295 (Santa Cruz Biotechnology). Mineralization was assessed via Alizarin Red S staining and quantification of calcium content. […] Mineralization was assessed via quantification of calcium content normalized to DNA content. […] To quantify calcium content in each sample, monolayers or whole fibrin gels were washed twice with PBS and then incubated with 0.5 N HCl overnight at 4° C. with agitation. Calcium content in the sample supernatants was quantified using a colorimetric Calcium LiquiColor Test (Stanbio). DNA content was quantified using a PicoGreen dsDNA quantitation kit (Molecular Probes) as previously described. […]

B1: BMP-2: bone morphogenetic protein-2, pro-osteogenic and pro-angiogenic growth factor (protein, UniProt P12643 283-396, looked up)
Bone morphogenetic protein 2: QAKHKQRKRLKSSCKRHPLYVDFSDVGWNDWIVAPPGYHAFYCHGECPFPLADHLNSTNHAIVQTLVNSVNSKIPKACCVPTELSAISMLYLDENEKVVLKNYQDMVVEGCGCR
calcium content versus control group (VM-OM): no significant changes
vascular network length versus control group (VM-OM): no significant changes
αSMA staining intensity: only slightly greater than control
